Data as given in patent US5935969A, “Pyrido-thiopyrandoinazoles with antitumor activity” (University of Vermont, priority 1998, dated 1999).

Legend:
LoVo/Dx = test: MTT cytotoxicity, multidrug-resistant subline LoVo/DX; format: cell-based, human; conditions: LoVo/DX vs LoVo; 60 min
Description: The evaluation of the biological activity for the compounds of this invention was performed "in vitro" and "in vivo" following the protocols developed by the U.S. National Cancer Institute.
The evaluation of the "in vitro" cytotoxic activity of the compounds of the invention was performed using the following cell lines: a murine sarcoma (S-180) and its subline expressing multidrug resistance (S-180/A-10), a leukemia (L1210), a human colon adenocarcinoma cell line (LoVo) isolated from a metastatic nodule and its subline expressing multidrug resistance. This latter subline is resistant to a number of antitumor agents, among which are doxorubicin, VP-16 and vincristine. […] The compounds were tested according to the MTT assay (Mosman, T. "Rapid Colorimetric Assay for Cellular Growth and Survival: Application to Proliferation and Cytotoxicity Assay", J. Immunol. Methods, (1983), 65, 55-63; Green, L. M., "Rapid Colorimetric Assay for Cell Viability; Application to the Quantitation of Cytotoxic and Growth Inhibitory Lymphokines", J. Immunol. Methods, (1984), 70, 257-268) in comparison with mitoxantrone and doxorubicin.
The columns headed L1210, S180 LoVo and LoVo/Dx contain the IC50 values against said tumor cell lines, as above described. […]
CYTOTOXICITY ON LOVO AND LOVO/DX WAS DETERMINED BY MTT ASSAY FOLLOWING 1

[1] = test system: cell histotypes developing resistance against doxorubicin mediated by overexpression of glycoprotein P; conditions: MDR; cited from earlier work

## O=C1c2c(O)ccc(O)c2C(=O)c2c(NCCNCCO)ccc(NCCNCCO)c21 [mitoxantrone, 5,8-dihydroxy-1,4-bis[(2-(2-hydroxyethylamino)ethyl)amino]anthracene-9,10-dione]
LoVo/Dx
  resistance index RI (ratio of IC50 for the resistance cell line to IC50 for the sensitive cell line): 22.5
[1]
  cross-resistance to doxorubicin-resistant cell histotypes: cross-resistance
